Results taken from patent US9918972B2, “Treatment of leukemia with artemisinin derivatives and combinations with other antineoplastic agents” (UNIVERSITY OF MARYLAND, BALTIMORE, priority 2014, dated 2018).

System: MOLM14
Assay: Kinase inhibitor drug combination screen (MTS, Bliss-independence analysis)

## C#Cc1cccc(Nc2ncnc3cc(OCCOC)c(OCCOC)cc23)c1 [Erlotinib]
  fractional inhibition over Bliss prediction: MOLM14 (0.12)
